The values that follow come from PubChem BioAssay AID1987 (The Scripps Research Institute Molecular Screening Center, 2009).

Protein sequences, listed by entry. Tags and fused reporters are not part of them.
UniProt P53041, whole entry: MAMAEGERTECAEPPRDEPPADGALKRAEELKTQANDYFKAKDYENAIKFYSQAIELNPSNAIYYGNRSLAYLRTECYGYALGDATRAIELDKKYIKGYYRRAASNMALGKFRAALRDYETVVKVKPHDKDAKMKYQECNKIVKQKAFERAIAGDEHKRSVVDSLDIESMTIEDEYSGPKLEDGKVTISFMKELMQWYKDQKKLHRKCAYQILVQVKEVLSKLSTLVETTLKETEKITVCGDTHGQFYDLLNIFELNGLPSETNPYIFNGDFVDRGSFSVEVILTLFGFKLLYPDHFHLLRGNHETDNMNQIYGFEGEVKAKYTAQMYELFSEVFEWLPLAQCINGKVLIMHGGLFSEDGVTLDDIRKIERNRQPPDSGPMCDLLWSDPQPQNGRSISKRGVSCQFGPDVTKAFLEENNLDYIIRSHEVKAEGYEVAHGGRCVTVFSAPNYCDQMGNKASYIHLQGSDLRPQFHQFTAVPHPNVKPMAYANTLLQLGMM

Molecules are shown by their SMILES. The entries are a selection whose mix differs from that of the whole data set. The source made the active and inactive calls.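 The calls were made as follows: active = inhibition above the campaign's mean inhibition across all tested compounds plus 3 SD (cut at about 9.5% in these data); inactive = the rest.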

This assay deals with Serine/threonine-protein phosphatase 5 (Homo sapiens) (UniProt P53041). The assay can be described thus: inhibition of human PP5 catalytic activity – biochemical, fluorescence, primary screen (AID 1987).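 Also: 0% = DMSO only and 100% = 100 µM cantharidin control.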 The settings on record: purified PP5c, OMFP substrate fluorescence; at 6.7 µM; hits give high values.
`CC1=NCCc2c1[nH]c1ccccc21.O=[N+]([O-])c1cc([N+](=O)[O-])c(O)c([N+](=O)[O-])c1`: the inhibition is inactive: -1.8%.
For `O=C(O)c1cccc(Nc2c([N+](=O)[O-])cc([N+](=O)[O-])cc2[N+](=O)[O-])c1` the value was inactive: 0.06%.
In the case of `Cc1ccc(C)c(NP(C)(=O)Oc2ccccc2)c1` (configuration not stated) it was inactive: -1.49%; in that of `Cc1cc(C)cc(OP(C)(=O)Nc2ccccn2)c1` (configuration not stated), inactive: 1.32%.
For `CP(=O)(Nc1cccc(Br)c1)Oc1ccccc1` (configuration not stated) the value was inactive: -1.67%.
Take `COc1ccccc1OP(C)(=O)Nc1cccc(Br)c1` (configuration not stated): the inhibition is inactive: -1.15%.
As to `CCOC(=O)c1ccc(NP(C)(=O)Oc2cc(C)cc(C)c2)cc1` (configuration not stated), the inhibition is inactive: 3.22%.
For `Cc1cc(C)cc(OP(C)(=O)Nc2ccc(C)cc2C)c1` (configuration not stated) the value was inactive: 0.54%; for `CCN(CC)CCCOC(=O)C(O)(c1ccccc1)c1ccccc1`, inactive: 1.23%; for `COc1ccccc1OP(C)(=O)Nc1ccc(C)cc1` (configuration not stated), inactive: 0.7%.
For `Cc1ccc(NP(C)(=O)Oc2ccccc2)c(C)c1` (configuration not stated) the value was inactive: 1.36%; for `CCOC(=O)c1ccc(NP(C)(=O)Oc2ccccc2)cc1` (configuration not stated), inactive: 4.1%.
For `Cc1cc(C)cc(OP(C)(N)=O)c1` (configuration not stated) the value was active: 10.9%.
Turning to `COc1ccccc1OP(C)(=O)Nc1cc(Cl)ccc1C` (configuration not stated), the inhibition was inactive: 1.75%.
On to `COc1ccc(OP(C)(=O)Nc2cccc(F)c2)cc1` (configuration not stated), for which the inhibition is inactive: 0.39%.
For `O=[N+]([O-])c1cc([N+](=O)[O-])c(Nc2cccnc2)c([N+](=O)[O-])c1` the value was inactive: 1.27%.
In the case of `O=[N+]([O-])c1ccc2c(c1)C=Nc1ccccc1O2` it was inactive: 0.77%; in that of `CC(C)(C)c1ccc(OP(C)(=O)Nc2ccc(SC(F)(F)F)cc2)cc1` (configuration not stated), inactive: 8.02%.
For `Cc1cccc(C)c1OP(C)(N)=O` (configuration not stated) the value was inactive: -2.14%.
As for `CP(=S)(Nn1cnnc1)Oc1ccccc1` (configuration not stated), the inhibition is inactive: 0.24%.
In the case of `CP(=O)(Nc1ccccc1Br)Oc1ccccc1` (configuration not stated) it was inactive: 1.45%; in that of `COc1ccccc1OP(C)(=O)Nc1ccccc1` (configuration not stated), inactive: 0.47%.
In the case of `O=[N+]([O-])c1cc([N+](=O)[O-])c(O)c([N+](=O)[O-])c1.c1ccc(Oc2ccncc2)cc1` it was inactive: 2.7%.
For `CCOC(=O)c1ccc(NP(C)(=O)Oc2ccc(OC)cc2)cc1` (configuration not stated) the value was inactive: -0.04%.
Consider `CCOP(C)(=S)SCC(=O)NC(C)C(=O)O` (configuration not stated), for which the inhibition is inactive: 0.98%.
For `CP(=O)(Nc1ccccn1)Oc1ccc(Cl)cc1` (configuration not stated), the inhibition was inactive: 2.69%.
In the case of `CP(=O)(Nc1ccc(SC(F)(F)F)cc1)Oc1ccc(Cl)cc1` (configuration not stated) it was inactive: 7.04%; in that of `Cc1cccc(C)c1OP(C)(=O)Nc1ccc(SC(F)(F)F)cc1` (configuration not stated), inactive: 5.95%.
For `CP(=O)(Oc1ccccc1)OC(c1ccccc1)C(F)(F)F` (configuration not stated) the value was inactive: 0.15%; for `CP(=O)(NC(=O)Nc1ccccc1)Oc1ccccc1` (configuration not stated), inactive: 1.96%.
In the case of `CCc1ccc(OP(C)(=O)N2CCN(c3ccc([N+](=O)[O-])cc3)CC2)cc1` (configuration not stated) it was inactive: 5.14%; in that of `Cc1cc(C)cc(OP(C)(=O)Nc2ccc(SC(F)(F)F)cc2)c1` (configuration not stated), inactive: 8.27%.

The term inhibition denotes the drop in the measured response relative to a control, in per cent.
